Some compounds may have been tested in ways that are not shown here.
Tests used:
[1] = biological target: reuptake of noradrenaline (NA) in synaptosomes (Rattus norvegicus, UniProt Q63380); experiment: Inhibition of NA reuptake in synaptosomes; details: read-out: NA-uptake IC50, 3H-NA
Text: (§1) Compounds of the invention may be tested for their ability to inhibit reuptake of the monoamines dopamine, noradrenaline and serotonin in synaptosomes e.g. such as described in WO 97/30997 (NeuroSearch A/S). Based on the balanced activity observed in these tests the compound of the invention is considered useful for the treatment, prevention or alleviation of a disease or a disorder or a condition of a mammal, including a human, which disease, disorder or condition is responsive to inhibition of monoamine neurotransmitter re-uptake in the central nervous system.
(§2) Compounds were tested for their ability to inhibit the reuptake of the monoamine neurotransmitters dopamine (DA) noradrenaline (NA) and serotonine (5-HT) in synaptosomes as described in WO 97/16451.
(§3) The test values are given as IC50 (the concentration (μM) of the test substance which inhibits the specific binding of ^3H-DA, ^3H-NA, or ^3H-5-HT by 50%).

By UniProt entry, the sequences of proteins in these tests, tags left out. Residues count along the entry.
UniProt Q63380, 1-617: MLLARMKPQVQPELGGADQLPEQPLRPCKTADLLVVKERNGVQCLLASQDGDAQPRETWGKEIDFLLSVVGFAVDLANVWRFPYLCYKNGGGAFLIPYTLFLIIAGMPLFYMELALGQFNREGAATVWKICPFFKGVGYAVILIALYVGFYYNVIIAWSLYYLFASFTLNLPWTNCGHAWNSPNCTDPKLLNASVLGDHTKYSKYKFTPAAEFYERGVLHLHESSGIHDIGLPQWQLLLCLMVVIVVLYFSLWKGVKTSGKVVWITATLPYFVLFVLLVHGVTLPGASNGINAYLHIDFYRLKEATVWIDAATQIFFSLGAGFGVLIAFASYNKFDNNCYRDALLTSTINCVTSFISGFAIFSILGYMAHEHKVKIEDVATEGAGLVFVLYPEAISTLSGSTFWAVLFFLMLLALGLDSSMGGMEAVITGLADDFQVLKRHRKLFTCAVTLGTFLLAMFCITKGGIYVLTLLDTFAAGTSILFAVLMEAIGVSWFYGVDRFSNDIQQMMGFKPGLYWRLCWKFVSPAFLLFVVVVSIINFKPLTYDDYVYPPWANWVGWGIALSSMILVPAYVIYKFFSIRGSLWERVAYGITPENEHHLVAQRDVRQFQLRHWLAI
UniProt P31652, whole entry: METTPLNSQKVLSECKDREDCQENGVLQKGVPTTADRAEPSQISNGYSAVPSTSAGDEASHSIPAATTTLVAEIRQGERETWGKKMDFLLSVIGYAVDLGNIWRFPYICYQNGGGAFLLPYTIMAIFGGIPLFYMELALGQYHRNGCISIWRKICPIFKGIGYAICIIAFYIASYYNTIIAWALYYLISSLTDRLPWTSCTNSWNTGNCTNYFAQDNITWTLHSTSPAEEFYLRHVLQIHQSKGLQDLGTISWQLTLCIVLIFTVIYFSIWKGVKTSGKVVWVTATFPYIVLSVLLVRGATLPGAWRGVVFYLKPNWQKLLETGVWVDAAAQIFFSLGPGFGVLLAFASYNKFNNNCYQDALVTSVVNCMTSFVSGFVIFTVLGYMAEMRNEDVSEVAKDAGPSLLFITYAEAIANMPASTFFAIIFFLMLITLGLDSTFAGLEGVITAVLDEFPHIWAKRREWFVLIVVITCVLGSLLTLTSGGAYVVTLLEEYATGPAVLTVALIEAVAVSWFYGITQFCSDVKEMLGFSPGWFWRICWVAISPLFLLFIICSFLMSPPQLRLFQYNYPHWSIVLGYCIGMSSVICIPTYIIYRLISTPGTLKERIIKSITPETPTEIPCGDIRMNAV
UniProt P23977, whole entry: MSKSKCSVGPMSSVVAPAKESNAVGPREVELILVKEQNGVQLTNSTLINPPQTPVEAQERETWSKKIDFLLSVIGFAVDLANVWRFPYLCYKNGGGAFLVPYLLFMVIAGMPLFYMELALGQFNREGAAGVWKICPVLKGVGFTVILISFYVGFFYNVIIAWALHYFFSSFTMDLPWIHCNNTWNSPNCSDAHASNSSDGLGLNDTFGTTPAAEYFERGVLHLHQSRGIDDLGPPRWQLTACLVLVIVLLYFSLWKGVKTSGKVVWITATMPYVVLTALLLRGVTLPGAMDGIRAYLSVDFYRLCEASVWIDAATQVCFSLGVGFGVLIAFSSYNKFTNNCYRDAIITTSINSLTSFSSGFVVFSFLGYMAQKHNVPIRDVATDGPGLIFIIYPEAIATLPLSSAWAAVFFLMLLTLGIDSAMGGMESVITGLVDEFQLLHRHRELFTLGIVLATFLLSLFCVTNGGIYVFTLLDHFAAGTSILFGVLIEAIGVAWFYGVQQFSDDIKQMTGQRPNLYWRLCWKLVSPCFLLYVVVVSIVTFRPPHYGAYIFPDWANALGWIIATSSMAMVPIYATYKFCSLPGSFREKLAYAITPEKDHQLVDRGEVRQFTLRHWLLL

[2] = biological target: reuptake of serotonine (5-HT) in synaptosomes (Rattus norvegicus, UniProt P31652); experiment: Inhibition of 5-HT reuptake in synaptosomes; details: read-out: 5-HT-uptake IC50, 3H-5-HT
Text: as §1, §2, §3

[3] = biological target: reuptake of dopamine (DA) in synaptosomes (Rattus norvegicus, UniProt P23977); experiment: Inhibition of DA reuptake in synaptosomes; details: read-out: DA-uptake IC50, 3H-DA
Text: as §1, §2, §3

Row | Structure (SMILES) | IC50 [1] | IC50 [2] | IC50 [3]
1 | CCC(=O)N(c1ccc(Cl)c(OC)c1)C1CCNCC1 | 2.4 nM | 7 nM | > 1000 nM
2 | CCC(=O)N(c1ccc(Cl)c(Cl)c1)C1CCNCC1 | 2 nM | 7.2 nM | 380 nM

Reference: US20110009449A1
